From patent publication US4197299A, “Anti-hypertensive derivatives of ergoline-2-thioethers and their sulphoxides” (priority 1977, dated 1980)

System: 5HT
Assay: Anti 5HT activity in vitro (f)
Text: (f) V. Ersparmer, Arch. Int. Pharmacodyn. 93, 293,

CN1C[C@H](CNC(=O)OCc2ccccc2)C[C@@H]2c3cccc4c3c(cn4C)C[C@H]21 [metergoline, reference compound]
Anti 5HT activity in vitro EC50: 0.005 ng/mL
